ChEMBL document CHEMBL1150324, “Support vector machines classification of hERG liabilities based on atom types” (Bioorg Med Chem, 2008)
pIC50: −log10 of the molar value.

The chains behind the UniProt entries cited, without tags or fusion partners. Where a name states a change or a piece, a line headed by the entry shows the natural chain unless it says otherwise.
UniProt Q12809: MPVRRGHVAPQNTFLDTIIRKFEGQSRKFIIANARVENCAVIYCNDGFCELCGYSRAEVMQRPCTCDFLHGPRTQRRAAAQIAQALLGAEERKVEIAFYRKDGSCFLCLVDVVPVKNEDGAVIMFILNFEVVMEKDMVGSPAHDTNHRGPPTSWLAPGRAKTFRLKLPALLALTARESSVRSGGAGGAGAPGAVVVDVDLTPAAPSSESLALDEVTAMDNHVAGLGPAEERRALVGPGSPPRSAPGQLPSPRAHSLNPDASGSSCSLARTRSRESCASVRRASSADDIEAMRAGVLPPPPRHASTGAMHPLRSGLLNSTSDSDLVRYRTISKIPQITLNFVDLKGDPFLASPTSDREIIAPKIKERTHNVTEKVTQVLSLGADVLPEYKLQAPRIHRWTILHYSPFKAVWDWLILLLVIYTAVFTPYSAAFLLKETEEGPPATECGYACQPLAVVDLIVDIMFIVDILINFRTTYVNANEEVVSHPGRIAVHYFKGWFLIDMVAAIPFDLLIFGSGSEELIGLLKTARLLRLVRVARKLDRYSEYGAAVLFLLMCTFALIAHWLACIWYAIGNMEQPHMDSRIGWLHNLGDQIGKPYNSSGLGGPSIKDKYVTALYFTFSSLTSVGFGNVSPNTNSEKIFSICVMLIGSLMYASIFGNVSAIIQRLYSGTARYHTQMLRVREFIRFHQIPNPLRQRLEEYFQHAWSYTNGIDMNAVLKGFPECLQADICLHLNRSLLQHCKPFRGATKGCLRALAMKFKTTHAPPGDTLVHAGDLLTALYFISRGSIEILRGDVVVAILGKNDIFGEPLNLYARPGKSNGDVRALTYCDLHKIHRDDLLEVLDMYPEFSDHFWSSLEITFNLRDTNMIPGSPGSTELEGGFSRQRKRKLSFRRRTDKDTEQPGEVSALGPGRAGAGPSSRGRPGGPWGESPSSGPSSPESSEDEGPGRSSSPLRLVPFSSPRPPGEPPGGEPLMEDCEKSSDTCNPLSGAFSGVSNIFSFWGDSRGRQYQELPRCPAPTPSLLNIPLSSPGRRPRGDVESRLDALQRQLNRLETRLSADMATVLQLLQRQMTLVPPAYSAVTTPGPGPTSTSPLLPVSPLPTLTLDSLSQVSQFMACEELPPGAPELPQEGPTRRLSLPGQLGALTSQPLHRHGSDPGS

Key:
[1] = target: hERG (KCNH2) (Homo sapiens, UniProt Q12809); experiment: in vitro
[2] = target: Voltage-gated inwardly rectifying potassium channel KCNH2 (Homo sapiens, UniProt Q12809)

Row | Structure (SMILES) | pIC50 [1] | pIC50 [2]
1 | CN1CCN(CCCCN2C(=O)CN(/N=C/c3ccc(-c4ccc(Cl)cc4)o3)C2=O)CC1 [AZIMILIDE] | 5.85 | –
2 | CC(C)COCC(CN(Cc1ccccc1)c1ccccc1)N1CCCC1 (centres undefined) [BEPRIDIL] | 6.26 | –
3 | CNCCCN1c2ccccc2CCc2ccccc21 [DESIPRAMINE] | – | 5.86
4 | C1CCC(C(CC2CCCCN2)C2CCCCC2)CC1 (centres undefined) [PERHEXILINE] | – | 5.11
